Columns and labels:
Mu-type opioid receptor = Mu-type opioid receptor (Homo sapiens, UniProt P35372)
[1] = target: Kappa-type opioid receptor (Homo sapiens, UniProt P41145)

Chains of the proteins cited; added tags and fusions are not shown. Lines headed by an entry give the natural chain unless they say otherwise; changes in a name come on top.
UniProt P35372, whole entry, looked up: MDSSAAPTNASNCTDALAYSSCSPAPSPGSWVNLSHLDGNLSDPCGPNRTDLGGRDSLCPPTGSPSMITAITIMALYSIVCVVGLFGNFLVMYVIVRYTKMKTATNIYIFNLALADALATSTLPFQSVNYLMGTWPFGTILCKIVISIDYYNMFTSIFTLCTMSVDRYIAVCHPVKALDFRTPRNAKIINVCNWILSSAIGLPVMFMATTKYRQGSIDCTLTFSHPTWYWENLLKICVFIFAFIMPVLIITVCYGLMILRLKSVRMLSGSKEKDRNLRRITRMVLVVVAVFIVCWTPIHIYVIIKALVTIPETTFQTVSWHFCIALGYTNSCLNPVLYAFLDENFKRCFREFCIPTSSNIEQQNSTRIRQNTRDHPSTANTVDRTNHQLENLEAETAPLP
UniProt P41145: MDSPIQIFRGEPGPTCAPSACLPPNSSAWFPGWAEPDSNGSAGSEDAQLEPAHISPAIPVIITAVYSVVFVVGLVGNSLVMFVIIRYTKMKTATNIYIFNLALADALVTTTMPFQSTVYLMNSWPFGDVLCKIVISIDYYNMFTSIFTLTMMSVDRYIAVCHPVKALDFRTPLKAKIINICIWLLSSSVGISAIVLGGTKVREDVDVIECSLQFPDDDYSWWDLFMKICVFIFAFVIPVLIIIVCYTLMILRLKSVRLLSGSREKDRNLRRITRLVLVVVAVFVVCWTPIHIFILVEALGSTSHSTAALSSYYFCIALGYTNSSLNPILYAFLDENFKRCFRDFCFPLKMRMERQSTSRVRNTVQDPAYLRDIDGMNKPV

## O=CN1CC[C@]23c4c5ccc(O)c4O[C@H]2[C@@H](O)C=C[C@H]3[C@H]1C5
Mu-type opioid receptor
  Ki: 420 nM
[1]
  Ki: 363 nM

From ChEMBL document CHEMBL1156939
